Reference: US20190352268A1, “CANNABINOID RECEPTOR MEDIATING COMPOUNDS” (The USA, as represented by the Secretary, Department of …, priority 2015, published 2019)

Test: Tissue levels (brain and plasma) after administration to mice
Conditions: 1 hour after administration of 10 mg/kg to mice

Structure (SMILES): CC(=N)N/C(=N\S(=O)(=O)c1ccc(Cl)cc1)N1C[C@H](c2ccccc2)C(c2ccc(Cl)cc2)=N1 [Compound 2E1]
- brain tissue level relative to plasma level: < 2%
